Test results: PMC4183577, “Structural Basis for Inhibition of the MDM2:p53 Interaction by an Optimized MDM2-Binding Peptide Selected with mRNA Display” (PLoS ONE, 2014)

Assay: CD spectroscopy with TFE
Format: physicochemical
Settings: 0.1 mM peptide, 25°C, light-path 2 mm
Excerpt: […]. The light-path length used was 2 mm. The results were expressed as mean residue molar ellipticity [θ].

CC(C)C[C@H](NC(=O)[C@H](CC(=O)O)NC(=O)[C@H](CO)NC(=O)[C@H](Cc1ccccc1)NC(=O)[C@@H](NC(=O)[C@H](CCC(=O)O)NC(=O)CCCCCNC(=O)CCCC[C@@H]1SC[C@@H]2NC(=O)N[C@@H]21)[C@@H](C)O)C(=O)N[C@@H](Cc1c[nH]c2ccccc12)C(=O)N[C@@H](CCCCN)C(=O)N[C@@H](CC(C)C)C(=O)N[C@@H](CC(C)C)C(=O)N1CCC[C@H]1C(=O)N[C@@H](CCC(=O)O)C(=O)O [p53 peptide]
CD spectral pattern in the absence of TFE (0% TFE): characteristic spectral pattern for an unstructured peptide
CD spectral pattern in the presence of TFE (30% and 50% TFE): hardly affected the spectral pattern
